The values that follow come from patent US6979572B1, “Compositions and methods for inhibiting inward-rectifier potassium channels” (Trustees of the University of Pennsylvania, priority 1998, dated 2005).

Data set [1] has as its target T1, ROMK1 I142L channel (Rattus norvegicus, UniProt P35560, I142L).
T1 construct: expressed in transfected cells; host or cells: Xenopus laevis oocytes (cRNA injection)
T1 sequence (P35560 1-391 I142L): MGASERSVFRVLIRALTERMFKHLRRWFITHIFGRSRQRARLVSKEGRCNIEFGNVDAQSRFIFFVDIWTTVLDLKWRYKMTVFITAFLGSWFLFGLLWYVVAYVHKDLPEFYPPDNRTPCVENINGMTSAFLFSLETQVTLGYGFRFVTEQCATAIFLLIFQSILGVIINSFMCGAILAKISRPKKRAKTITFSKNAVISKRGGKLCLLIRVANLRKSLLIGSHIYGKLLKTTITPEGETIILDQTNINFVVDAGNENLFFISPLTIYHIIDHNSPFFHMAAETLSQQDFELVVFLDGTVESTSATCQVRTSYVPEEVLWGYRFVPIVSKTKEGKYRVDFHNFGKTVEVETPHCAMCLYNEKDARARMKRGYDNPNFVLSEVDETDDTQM
Briefly: Two-electrode voltage clamp of ROMK1 mutant I142L. Format: cell-based. The note with it: relative to wild-type ROMK1. The source says: However, contrary to what has been found for Lq2, a channel mutation, I142L, lowers the affinity of the ROMK1 channel for tertiapin by 8-fold. Residue 142 is located within the signature sequence that forms the K^+-selective part of the pore. The different effects of mutation I142L on the binding of the two toxins may be a consequence of tertiapin contacting the base of the vestibule more intimately than Lq2, which would also explain why tertiapin binds to the channel with a 200-fold higher affinity than Lq2.
Oocytes harvested from Xenopus laevis frogs were digested with collagenase (2 mg/mL) in a solution containing: NaCl, 82.5 mM; KCl, 2.5 mM; MgCl2, 1.0 mM; HEPES, 5.0 mM (pH 7.6) and were agitated on a platform shaker at a rate of 80 rpm for 90 minutes. The oocytes were then rinsed thoroughly with and stored in a solution containing: gentamicin, 50 μg/mL; NaCl, 96 mM; KCl, 2 mM; CaCl2, 1.8 mM; MgCl, 1 mM; HEPES, 5 mM (pH 7.6). Defolliculated oocytes were selected at least 2 hours after the collagenase digestion. To express channels, the corresponding cRNA was directly injected into oocytes. […]
All three inward-rectifier K^+ channels, GIRK1/4, ROMK1, and IRK1, were studied using a two-electrode voltage clamp amplifier (Oocyte Clamp OC-725C, Warner Instruments Corp.). […] Tertiapin concentration was calculated using an extinction coefficient 6.1 mM^−1 cm^−1 at 280 nm wavelength. […]

Data set [2] concerns uninjected oocytes. Description: Currents in uninjected oocytes. Format: cell-based, Xenopus laevis. As for the experimental part:
Oocytes harvested from Xenopus laevis frogs were digested with collagenase (2 mg/mL) in a solution containing: NaCl, 82.5 mM; KCl, 2.5 mM; MgCl2, 1.0 mM; HEPES, 5.0 mM (pH 7.6) and were agitated on a platform shaker at a rate of 80 rpm for 90 minutes. The oocytes were then rinsed thoroughly with and stored in a solution containing: gentamicin, 50 μg/mL; NaCl, 96 mM; KCl, 2 mM; CaCl2, 1.8 mM; MgCl, 1 mM; HEPES, 5 mM (pH 7.6). Defolliculated oocytes were selected at least 2 hours after the collagenase digestion. To express channels, the corresponding cRNA was directly injected into oocytes. To express the GIRK1/4 channel, GIRK1 and GIRK4 cRNAs were co-injected with either M2 or M4 receptor cRNA. All injections were carried out at least 16 hours after the collagenase treatment. The injected oocytes were stored in an 18° C. incubator.
All three inward-rectifier K^+ channels, GIRK1/4, ROMK1, and IRK1, were studied using a two-electrode voltage clamp amplifier (Oocyte Clamp OC-725C, Warner Instruments Corp.). The resistance of electrodes filled with 3 M KCl were 0.2–0.4 M Ω. To elicit current through the channel, the membrane potential of oocytes was stepped to −80 mV (100–125 ms) and then to +80 mV (100–125 ms) from the holding potential of 0 mV. […] Tertiapin concentration was calculated using an extinction coefficient 6.1 mM^−1 cm^−1 at 280 nm wavelength. […]

Data set [3] can be described thus: Oxidation of residue 13 by air (HPLC). Format: physicochemical. The text has this: Instability of tertiapin can limit its utility in such screening assays. Methionine residue 13 in tertiapin interacts with residue F148 in the channel located just outside of the narrow region of the ROMK1 pore. […] Accordingly, to overcome the oxidation problem, M13 in tertiapin was replaced with fourteen different non-oxidizable residues. […] This derivative is referred to herein as TPNQ and depicted as SEQ ID NO:2.
Oxidation of M13 altered both the chromatographic behavior and the inhibitory activity of tertiapin. The oxidized form of tertiapin was eluted at a lower percentage of organic phase than the nonoxidized form. […] Therefore, tertiapin samples were examined daily using HPLC both before and after experiments. Only tertiapin samples containing less than 1% oxidized tertiapin, which was determined from the areas of absorbance peaks on HPLC, were used.

“Also recorded” adds a separate entry of the source.

On to `CC[C@H](C)[C@@H]1NC(=O)[C@H](CCCNC(=N)N)NC(=O)[C@H](CC(N)=O)NC(=O)[C@@H]2CSSC[C@@H](C(=O)NCC(=O)N[C@@H](CCCCN)C(=O)N[C@@H](CCCCN)C(N)=O)NC(=O)[C@H](CCCCN)NC(=O)[C@H](CCCCN)NC(=O)[C@H](Cc3c[nH]c4ccccc34)NC(=O)[C@H](CSSC[C@H](NC(=O)[C@H](CC(C)C)NC(=O)[C@H](C)N)C(=O)N[C@@H](CC(N)=O)C(=O)N2)NC(=O)[C@H](CCSC)NC(=O)[C@H](Cc2c[nH]cn2)NC(=O)[C@@H]2CCCN2C(=O)[C@H]([C@@H](C)CC)NC(=O)[C@H]([C@@H](C)CC)NC1=O` [tertiapin], for which, in data set [1], the “lowering of ROMK1 affinity by mutation I142L” value worked out at 8 fold. The “effect on the currents in uninjected oocytes” value in data set [2] is “did not affect the currents”. The oxidation by air entry in data set [3] is “oxidized by air; also recorded: may become oxidized spontaneously”.
